Source: US12360111B2, “G protein-coupled receptor screening systems” (The University of North Carolina at Chapel Hill, priority 2018, dated 2025)

Protein sequences, listed by entry. Tags and fused reporters are not part of them. Lines headed by an entry give the natural chain unless they say otherwise; changes in a name come on top.
UniProt P41145: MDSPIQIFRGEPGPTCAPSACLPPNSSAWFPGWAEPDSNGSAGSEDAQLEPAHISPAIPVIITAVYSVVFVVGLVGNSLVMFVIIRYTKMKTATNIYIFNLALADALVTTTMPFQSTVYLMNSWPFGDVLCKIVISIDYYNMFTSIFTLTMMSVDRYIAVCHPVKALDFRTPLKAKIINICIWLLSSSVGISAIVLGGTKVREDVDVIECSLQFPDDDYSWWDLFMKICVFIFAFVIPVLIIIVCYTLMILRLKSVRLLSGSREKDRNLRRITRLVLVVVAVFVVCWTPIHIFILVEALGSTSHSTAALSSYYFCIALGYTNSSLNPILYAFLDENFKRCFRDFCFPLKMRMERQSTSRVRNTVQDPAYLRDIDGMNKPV

Target: KOR, Gαi/o-class TRUPATH sensors (Homo sapiens, UniProt P41145)
Test: TRUPATH profiling of KOR agonists
Format: cell-based

Structure (SMILES): CO[C@]12CC[C@@]3(C[C@@H]1C(C)(C)O)[C@H]1Cc4ccc(O)c5c4[C@@]3(CCN1CC1CC1)[C@H]2O5
- efficacy across transducers (in words): exhibited efficacy bias
